From PubChem BioAssay AID588354 (The Scripps Research Institute Molecular Screening Center, 2011)
The list shows a part of the results, in another mix than the full data. The source made the active and inactive calls.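 Rule for the calls: active = inhibition above the campaign mean plus 3 SD, with each screening campaign given its own cutoff (cut at about 60% in these data); inactive = the rest.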

Sequences of proteins named here, by UniProt entry; tags and fusion partners are left off. A change or cut given only in a name is not applied to a line headed by its entry.
UniProt Q15788: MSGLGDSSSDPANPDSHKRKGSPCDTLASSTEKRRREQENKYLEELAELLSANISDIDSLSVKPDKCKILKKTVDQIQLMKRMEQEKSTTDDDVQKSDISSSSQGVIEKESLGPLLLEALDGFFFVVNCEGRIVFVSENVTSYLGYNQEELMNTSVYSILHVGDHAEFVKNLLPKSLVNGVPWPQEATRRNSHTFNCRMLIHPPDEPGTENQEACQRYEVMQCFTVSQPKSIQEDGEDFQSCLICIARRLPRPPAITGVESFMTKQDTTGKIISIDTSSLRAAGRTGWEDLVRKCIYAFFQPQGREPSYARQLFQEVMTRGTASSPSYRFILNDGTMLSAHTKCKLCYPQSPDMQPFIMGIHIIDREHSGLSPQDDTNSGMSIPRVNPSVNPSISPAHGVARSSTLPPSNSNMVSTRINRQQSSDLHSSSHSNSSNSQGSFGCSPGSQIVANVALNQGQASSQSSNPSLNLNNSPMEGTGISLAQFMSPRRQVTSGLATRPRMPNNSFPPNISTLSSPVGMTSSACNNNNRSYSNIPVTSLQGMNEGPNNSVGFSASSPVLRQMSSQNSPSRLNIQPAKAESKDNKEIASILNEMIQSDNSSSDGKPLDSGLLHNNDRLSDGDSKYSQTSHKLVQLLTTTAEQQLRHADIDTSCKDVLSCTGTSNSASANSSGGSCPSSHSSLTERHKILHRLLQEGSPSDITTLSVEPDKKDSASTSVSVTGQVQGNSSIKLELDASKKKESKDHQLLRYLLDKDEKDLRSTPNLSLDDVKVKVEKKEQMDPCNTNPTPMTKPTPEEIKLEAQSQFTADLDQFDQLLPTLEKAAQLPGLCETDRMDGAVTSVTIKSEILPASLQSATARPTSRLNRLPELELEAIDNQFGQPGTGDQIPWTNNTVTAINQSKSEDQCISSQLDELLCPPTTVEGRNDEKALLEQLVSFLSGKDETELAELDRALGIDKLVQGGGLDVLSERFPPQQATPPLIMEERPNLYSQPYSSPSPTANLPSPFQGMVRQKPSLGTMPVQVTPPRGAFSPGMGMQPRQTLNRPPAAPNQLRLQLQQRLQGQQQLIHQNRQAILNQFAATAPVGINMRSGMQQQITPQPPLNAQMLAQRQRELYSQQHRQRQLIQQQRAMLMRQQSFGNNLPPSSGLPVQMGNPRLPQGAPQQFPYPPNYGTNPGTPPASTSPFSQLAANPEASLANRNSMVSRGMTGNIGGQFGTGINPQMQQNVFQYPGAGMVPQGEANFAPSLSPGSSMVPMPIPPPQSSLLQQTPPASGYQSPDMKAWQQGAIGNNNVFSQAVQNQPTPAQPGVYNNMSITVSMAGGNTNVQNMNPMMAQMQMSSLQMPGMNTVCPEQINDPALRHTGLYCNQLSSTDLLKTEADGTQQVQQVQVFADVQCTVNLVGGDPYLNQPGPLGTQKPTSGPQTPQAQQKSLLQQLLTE

molecular target: Nuclear receptor coactivator 1 (Homo sapiens) (UniProt Q15788); test: SRC1 coactivator transcriptional activity inhibitors, primary screen, cell-based, luminescence (AID 588354); settings: HEK293 GAL4-SRC1 luciferase reporter, at 3.6 µM, active compounds read high;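 note: 0% = DMSO treated cells and 100% = gossypol at 36 µM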

| SMILES | inhibition |
| --- | --- |
| CCC(C)N(CC(C)C)C(=S)SC(NC(C)=O)C(Cl)(Cl)Cl (configuration not stated) | inactive: 0.04% |
| CCOC(=O)c1ccc(NC(=O)C(C)(CCl)SC)cc1 (configuration not stated) | inactive: -56.4% |
| CSc1ccc(Nc2c([N+](=O)[O-])cc([N+](=O)[O-])cc2[N+](=O)[O-])cc1 | inactive: -31.5% |
| O=C(OC1CN2CCC1CC2)c1cccc([N+](=O)[O-])c1 (configuration not stated) | inactive: -6.44% |
| O=C(Nc1ccncc1[N+](=O)[O-])c1ccc([N+](=O)[O-])cc1[N+](=O)[O-] | inactive: 10.8% |
| O=C(COc1ccccc1)OC1CN2CCC1CC2 (configuration not stated) | inactive: -7.63% |
| O=C(O)C(=O)c1ccc(N(CCCl)CCCl)cc1 | inactive: -6.47% |
| COC(=O)C1(C)COP(=O)(N2CCCC2)OC1 (configuration not stated) | inactive: -6.15% |
| COP1(=S)c2c(C)nn(CCC#N)c2N=C(c2ccc(F)cc2)N1C (configuration not stated) | inactive: -0.78% |
| O=[N+]([O-])c1ccc(Nc2ccc(Oc3ccc([N+](=O)[O-])cc3[N+](=O)[O-])cc2)c([N+](=O)[O-])c1 | inactive: -11.5% |
| O=P(Nc1ccccn1)(c1cccc2ccccc12)c1cccc2ccccc12 | inactive: -8.54% |
| Cc1cc(SC(NC=O)C(Cl)(Cl)Cl)ncn1 (configuration not stated) | inactive: -1.33% |
| CCOC(=O)Nc1cccc([As](=O)(O)O)c1 | inactive: -8.5% |
| Cc1cc(SC(NC(=O)c2ccccc2)C(Cl)(Cl)Cl)nc(C(C)C)n1 (configuration not stated) | inactive: -88.2% |
| CCCCOc1ccc(C(=O)NCC2(N3CCCCC3)CCCCC2)cc1OC | inactive: 5.01% |
| COP(=O)(OC)N1CC1c1ccccc1 (configuration not stated) | inactive: -7.24% |
| CC1CCNP(=O)(N(CCCl)CCCl)O1 (configuration not stated) | inactive: 0.34% |
| CCOC(=O)Nc1ccc([As](=O)(O)O)c(O)c1 | inactive: -11.8% |
| O=C(O)C(O)c1ccc(N(CCCl)CCCl)cc1 (configuration not stated) | inactive: -14.7% |
| O=[N+]([O-])c1cc([N+](=O)[O-])c(-c2ccn[nH]2)s1 | inactive: -5.87% |
| O=C(OC1CN2CCC1CC2)c1cccc2[nH]cnc12 (configuration not stated) | inactive: 0.34% |

| SMILES | inhibition |
| --- | --- |
| CCN(CC)C(=S)SC(NC=O)C(Cl)(Cl)Cl (configuration not stated) | inactive: -16.9% |
| CC(C)NC(=O)NP(=O)(Oc1ccccc1)Oc1ccccc1 | inactive: -30.2% |
| CC(C)c1ccc(OP(=O)(Nc2ccccn2)Oc2ccccc2F)cc1 (configuration not stated) | inactive: 26.6% |
| COC(=O)C1(C)COP(=O)(N2CCCCCC2)OC1 (configuration not stated) | inactive: -4.5% |
| ClCCSc1nnc(-c2cccnc2)o1 | inactive: -25.6% |
| Cc1ccc2nc3c(c(C)c2c1)CC(C(Cl)Cl)S3 (configuration not stated) | inactive: -46.9% |
| Cc1ccc(OP(=O)(Nc2ccc([N+](=O)[O-])cn2)Oc2ccc(C)cc2)cc1 | inactive: -37.9% |
| COc1cc(C(=O)NCC2(N3CCOCC3)CCCCC2)ccc1OCC(C)C | inactive: 4.22% |
| O=[N+]([O-])c1ccc(-c2cc([N+](=O)[O-])c(O)c([N+](=O)[O-])c2)cc1 | inactive: -6.37% |
| C[As](=O)(O)c1cccc(C(=O)O)c1 | inactive: -24.5% |
| O=[As](O)(c1ccc(O)cc1)c1ccccc1O | inactive: -9.45% |
| COc1ccc(N/C(=N/P(=O)(N2CCOCC2)N2CCOCC2)N2CCOCC2)cc1 | inactive: 7.3% |
| O=[N+]([O-])c1cc(Oc2ccc([N+](=O)[O-])cc2C(F)(F)F)cc([N+](=O)[O-])c1 | inactive: 8.92% |
| COc1cc(I)ccc1[As](=O)(O)O | inactive: 7.05% |
| COc1ccc2nc(NP(=O)(c3ccccc3)c3ccccc3)sc2c1 | inactive: -7.28% |
| O=P1(N(CCCl)CCCl)Nc2ccccc2N1 | inactive: -117% |
| O=P1(N(CCCl)CCCl)OCCCN1CCCl (configuration not stated) | inactive: -4.39% |
| Cc1cc(=O)[nH]c(N[N+](=O)[O-])n1 | inactive: 10.3% |
| O=C(OC1CN2CCC1CC2)C12CC3CC(CC(C3)C1)C2 (configuration not stated) | inactive: 2.78% |
| Cc1c2c(nc3ccccc13)SC(C(Cl)Cl)C2 (configuration not stated) | inactive: 11.7% |
| CCOP(=O)(Nc1cccc2ccccc12)OCC | inactive: 4.61% |

| SMILES | inhibition |
| --- | --- |
| COc1cc(C2NCCC3(OCCO3)C2(C)C)cc(OC)c1OC (configuration not stated) | inactive: 9.2% |
| CCCOP(=S)(Nc1nc(N)cc(=O)[nH]1)OCCC | inactive: -21.2% |
| Nc1cccc2c([As](=O)(O)O)cccc12 | inactive: -2.57% |
| Cc1ccc(NCCc2c([N+](=O)[O-])cc([N+](=O)[O-])cc2[N+](=O)[O-])cc1 | inactive: -14.6% |
| O=[As](O)(c1cccc(O)c1)c1cccc(O)c1 | inactive: -19.2% |
| Cc1cccc(OCC(=O)OC2CN3CCC2CC3)c1 (configuration not stated) | inactive: -3.39% |
| CS(=O)(=O)c1ccc(Cl)c(NC(=O)COC(=O)C(O)(c2ccccc2)c2ccccc2)c1 | inactive: -8.41% |
| COc1cc(C(=O)NCC2(N3CCOCC3)CCCCC2)cc(Cl)c1OC(C)C | inactive: 0.35% |
| O=[As](O)(O)c1cccnc1 | inactive: -9.27% |
| O=C(OC1CN2CCC1CC2)c1ccc(Cl)cc1 (configuration not stated) | inactive: 11.9% |
| CN(C(=O)Cc1ccc(Cl)c(Cl)c1)[C@H]1CC[C@@]2(CCCO2)C[C@@H]1N1CCCC1 | inactive: -19.7% |
| CN(C)C(=O)c1cc([N+](=O)[O-])cc2c1-c1c(cc([N+](=O)[O-])cc1[N+](=O)[O-])C2=O | inactive: -4.39% |
| O=[N+]([O-])c1ccc2c(c1)nnn2O | inactive: -8.06% |
| CN(C(=O)Cc1ccccc1)[C@@H]1CC[C@]2(CCCO2)C[C@H]1N1CCCC1 | inactive: -5.63% |
| CCOP1(=S)c2c(C)nn(CCC#N)c2N=C(c2ccc(F)cc2)N1C (configuration not stated) | inactive: -15.2% |
| N#CCCN(C(=O)COC(=O)C(O)(c1ccccc1)c1ccccc1)c1ccc(F)cc1 | inactive: 8.12% |
| NC(=O)Nc1ccc([As](=O)(O)O)cc1 | inactive: -8.14% |
| Nc1ccccc1[As](=O)(O)c1ccccc1 | inactive: 10.9% |
| O=C(O)COc1ccc([As](=O)(O)O)cc1[N+](=O)[O-] | inactive: 23% |
| CS(=O)(=O)c1cc([N+](=O)[O-])c2no[n+]([O-])c2c1 | inactive: -8.22% |
